To fix the notation:
B1: "DNA (cytosine-5)-methyltransferase 1" (Homo sapiens), P26358 (parent)
chain: MPARTAPARVPTLAVPAISLPDDVRRRLKDLERDSLTEKECVKEKLNLLHEFLQTEIKNQLCDLETKLRKEELSEEGYLAKVKSLLNKDLSLENGAHAYNREVNGRLENGNQARSEARRVGMADANSPPKPLSKPRTPRRSKSDGEAKPEPSPSPRITRKSTRQTTITSHFAKGPAKRKPQEESERAKSDESIKEEDKDQDEKRRRVTSRERVARPLPAEEPERAKSGTRTEKEEERDEKEEKRLRSQTKEPTPKQKLKEEPDREARAGVQADEDEDGDEKDEKKHRSQPKDLAAKRRPEEKEPEKVNPQISDEKDEDEKEEKRRKTTPKEPTEKKMARAKTVMNSKTHPPKCIQCGQYLDDPDLKYGQHPPDAVDEPQMLTNEKLSIFDANESGFESYEALPQHKLTCFSVYCKHGHLCPIDTGLIEKNIELFFSGSAKPIYDDDPSLEGGVNGKNLGPINEWWITGFDGGEKALIGFSTSFAEYILMDPSPEYAPIFGLMQEKIYISKIVVEFLQSNSDSTYEDLINKIETTVPPSGLNLNRFTEDSLLRHAQFVVEQVESYDEAGDSDEQPIFLTPCMRDLIKLAGVTLGQRRAQARRQTIRHSTREKDRGPTKATTTKLVYQIFDTFFAEQIEKDDREDKENAFKRRRCGVCEVCQQPECGKCKACKDMVKFGGSGRSKQACQERRCPNMAMKEADDDEEVDDNIPEMPSPKKMHQGKKKKQNKNRISWVGEAVKTDGKKSYYKKVCIDAETLEVGDCVSVIPDDSSKPLYLARVTALWEDSSNGQMFHAHWFCAGTDTVLGATSDPLELFLVDECEDMQLSYIHSKVKVIYKAPSENWAMEGGMDPESLLEGDDGKTYFYQLWYDQDYARFESPPKTQPTEDNKFKFCVSCARLAEMRQKEIPRVLEQLEDLDSRVLYYSATKNGILYRVGDGVYLPPEAFTFNIKLSSPVKRPRKEPVDEDLYPEHYRKYSDYIKGSNLDAPEPYRIGRIKEIFCPKKSNGRPNETDIKIRVNKFYRPENTHKSTPASYHADINLLYWSDEEAVVDFKAVQGRCTVEYGEDLPECVQVYSMGGPNRFYFLEAYNAKSKSFEDPPNHARSPGNKGKGKGKGKGKPKSQACEPSEPEIEIKLPKLRTLDVFSGCGGLSEGFHQAGISDTLWAIEMWDPAAQAFRLNNPGSTVFTEDCNILLKLVMAGETTNSRGQRLPQKGDVEMLCGGPPCQGFSGMNRFNSRTYSKFKNSLVVSFLSYCDYYRPRFFLLENVRNFVSFKRSMVLKLTLRCLVRMGYQCTFGVLQAGQYGVAQTRRRAIILAAAPGEKLPLFPEPLHVFAPRACQLSVVVDDKKFVSNITRLSSGPFRTITVRDTMSDLPEVRNGASALEISYNGEPQSWFQRQLRGAQYQPILRDHICKDMSALVAARMRHIPLAPGSDWRDLPNIEVRLSDGTMARKLRYTHHDRKNGRSSSGALRGVCSCVEAGKACDPAARQFNTLIPWCLPHTGNRHNHWAGLYGRLEWDGFFSTTVTNPEPMGKQGRVLHPEQHRVVSVRECARSQGFPDTYRLFGNILDKHRQVGNAVPPPLAKAIGLEIKLCMLAKARESASAKIKEEEAAKD
partner: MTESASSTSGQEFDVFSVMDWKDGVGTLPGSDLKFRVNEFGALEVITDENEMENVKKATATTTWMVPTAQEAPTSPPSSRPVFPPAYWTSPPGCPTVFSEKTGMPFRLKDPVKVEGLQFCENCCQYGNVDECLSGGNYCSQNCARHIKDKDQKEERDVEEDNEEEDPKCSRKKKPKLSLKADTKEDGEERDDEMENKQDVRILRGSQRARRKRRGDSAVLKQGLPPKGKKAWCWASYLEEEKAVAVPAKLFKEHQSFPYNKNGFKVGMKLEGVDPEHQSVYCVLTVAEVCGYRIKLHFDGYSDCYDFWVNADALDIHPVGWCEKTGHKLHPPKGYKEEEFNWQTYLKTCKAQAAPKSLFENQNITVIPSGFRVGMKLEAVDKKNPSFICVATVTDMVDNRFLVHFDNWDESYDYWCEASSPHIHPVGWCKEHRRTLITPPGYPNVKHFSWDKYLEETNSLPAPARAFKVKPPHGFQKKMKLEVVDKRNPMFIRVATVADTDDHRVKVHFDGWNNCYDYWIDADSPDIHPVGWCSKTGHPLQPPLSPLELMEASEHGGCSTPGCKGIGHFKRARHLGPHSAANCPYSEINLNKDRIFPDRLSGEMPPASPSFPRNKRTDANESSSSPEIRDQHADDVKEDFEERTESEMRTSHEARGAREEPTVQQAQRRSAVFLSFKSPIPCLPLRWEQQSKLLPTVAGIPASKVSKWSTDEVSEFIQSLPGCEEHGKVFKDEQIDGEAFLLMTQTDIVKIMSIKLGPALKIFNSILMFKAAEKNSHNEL
B2: "DNA (cytosine-5)-methyltransferase 1" (Homo sapiens), P26358 (parent)
chain: B1 chain

The variants in one assay derive from B1. The following applies: with lmbl3_human L3MBTL3, Q96JM7.
Take K142A: the “effect of a mutation on the interaction” value was “disrupting interaction strength”.

In a further assay the parent is B2. Conditions: with dcaf5_human DCAF5, Q96JK2.
Turning to K142A, the “effect of a mutation on the interaction” value is given as “disrupting interaction strength”.

The values are drawn from IntAct's records for PubMed 29691401.
